Measurements: paper PMC12434715 (Biochemical pharmacology, 2018)

Legend:
TK6/SULT2A1 cells = experiment: MTT assay of cell growth in TK6/SULT2A1 cells; details: tested concentration (DHEA 5 μM, pentachlorophenol 10 μM), 48 h
TK6/SULT vector cells = experiment: MTT assay of cell growth in TK6/SULT vector cells; details: tested concentration (DHEA 5 μM, pentachlorophenol 10 μM), 48 h

For `C[C@]12CC[C@H](O)CC1=CC[C@@H]1[C@@H]2CC[C@]2(C)C(=O)CC[C@@H]12` [DHEA, dehydroepiandrosterone], the “Cytotoxicity of the SULT substrate alone” value (TK6/SULT2A1 cells) was “not cytotoxic” and the “Cytotoxicity of the SULT substrate alone” value (TK6/SULT vector cells) was “not cytotoxic”.
